Source: patent US20260384421A1, “NOVEL COMPOUNDS THAT CAN BE USED AS THERAPEUTIC AGENTS” (published 2026)
Read-outs that look alike come from different tables or passages of the source.

Assays:
HEP-G2 cells = experiment: alamarBlue proliferation assay with HEP-G2 cells; settings: read-out: Activity on HEP-G2: IC50, RPMI 1640 medium, 10% FBS
Excerpt: (§1) These hyperproliferative processes can be benign or malignant and include hyperplasia, neoplasia, cancer and pre-cancerous lesions, and metastases. The antiproliferative activities of compounds falling under general formula (I) were investigated on human primary epidermal keratinocytes (HPEK) and human, murine and canine cell lines derived from hyperproliferative tissue or different cancer types, including MDA-MB-231, ZR-75-30, HCC-1395, HCC-1937, and T-47D all originating from cancer of the breast, JURKAT, RPMI-8402, LOUCY, TANQUE, REC-1, HL-60, NB-4 all originating from different types of blood cancer including lymphoma and leukemia of T-cells, B-cells and myeloid cells, TT originating from cancer of the neuroendocrine system, HeLa originating from cancer of the cervix, 23132/87, SW-948, and HCT-116 all originating from cancer of the gastrointestinal tract including stomach and colon, BHY originating from cancer of the mucosal epithelium, A-431 originating from cancer of the skin, HEP-G2 originating from cancer of the liver, NCI-H460 and A-549 both originating from cancer of the lung, PANC-1 originating from cancer of the pancreas, U-87 MG originating from cancer of the brain, A-375 and RVH-421 both originating from cancer of melanocytes, SW-1353 originating from cancer of bone-derived chondrocytes, C2C12 a mouse cell line originating from hyperproliferative muscle progenitor cells, LL/2 a mouse cell line originating from cancer of the lung, CF21.T a dog cell line originating from cancer of the connective tissue. To this end, according cells were seeded into 96-well plates (CORNING #3598) suitable for fluorescence assays at following initial cell numbers: 1000 cells per well for HPEK; 3000 cells per well for MDA-MB-231, 8000 cells per well for ZR-75-30, 1500 cells per well for HCC-1395, 1500 cells per well for HCC-1937, 3000 cells per well for T-47D, 1500 cells per well for JURKAT, 5000 cells per well for RPMI-8402, 9000 cells per well for LOUCY, 1500 cells per well for TANQUE, 9000 cells per well for REC-1, 1000 cells per well for HL-60, 1000 cells per well for NB-4, 9000 cells per well for TT, 2000 cells per well for HeLa, 2000 cells per well for 23132/87, 9000 cells per well for SW-948, 700 cells per well for HCT-116, 1500 cells per well for BHY, 700 cells per well for A-431, 1500 cells per well for HEP-G2, 500 cells per well for NCI-H460, 1000 cells per well for A-549, 1500 cells per well for PANC-1, 2500 cells per well for U-87 MG, 700 cells per well for A-375, 1500 cells per well for RVH-421, 2000 cells per well for SW-1353, 500 cells per well for C2C12, 500 cells per well for LL/2, and 3000 cells per well for CF21.T. In a volume of 90 μL per well of culture medium the cells were treated with compounds at indicated final concentrations by adding 10 μL per well of 10× compound working solutions from 1:100 pre-diluted 1000× compound DMSO stock-solutions in H2O (Water For Injection, WFI, Fisher Scientific, Gibco™ #A12873) or with the empty carrier DMSO (AppliChem, #A3672) at 0.1% v/v as control yielding a final volume of 100 μL per well. At day 5 after starting the treatments the cells were subjected to the alamarBlue® Proliferation Assay (Bio-Rad Serotec GmbH, BUF012B) according to the protocol of the manufacturer. The readout was taken with a multi-well plate-reader (Tecan Spark®) in the fluorescence mode with applying a filter for excitation at 560 nm (band width 10 nm) and for emission at 590 nm (band width 10 nm). Treatment for maximum proliferation inhibition with the commercial cytotoxic compound (S)-(+)-camptothecin (Fluorochem #M01564) at a concentration of 10 μM was included on each plate for assay quality control. Some of the test compounds of the present invention may have been obtained and applied as their salt forms.
(§2) The assays were performed in duplicate or more replicates of independent single experiments each containing a three- to six-fold replicate for every condition. […]

A-549 cells = experiment: alamarBlue proliferation assay with A-549 cells; settings: read-out: Activity on A-549: IC50, DMEM medium, 10% FBS
Excerpt: as §1, §2

NB-4 cells = experiment: alamarBlue proliferation assay with NB-4 cells; settings: read-out: Activity on NB-4: IC50, RPMI 1640 medium, 10% FBS
Excerpt: as §1, §2

HPEKp cells = experiment: proliferation assay with human epidermal keratinocyte progenitors (HPEKp), selectivity versus MDA-MB-231
Excerpt: as §1, §2

HCT-116 cells = experiment: alamarBlue proliferation assay with HCT-116 cells; settings: read-out: Activity on HCT-116: IC50, McCoy's 5A medium, 10% FBS
Excerpt: as §1, §2

BHY cells = experiment: alamarBlue proliferation assay with BHY cells; settings: read-out: Activity on BHY: IC50, DMEM medium, 10% FBS
Excerpt: as §1, §2

MDA-MB-231 cells = experiment: alamarBlue proliferation assay with MDA-MB-231 cells (glucose-free Leibovitz's L-15 medium)
Excerpt: as §1, §2

NCI-H460 cells = experiment: alamarBlue proliferation assay with NCI-H460 cells; settings: read-out: Activity on NCI-H460: IC50, RPMI 1640 medium, 10% FBS
Excerpt: as §1, §2

LL/2 cells = experiment: alamarBlue proliferation assay with LL/2 cells; settings: read-out: Activity on LL/2: IC50; LL/2 murine Lewis lung carcinoma cells, DMEM medium, 10% FBS
Excerpt: as §1, §2

TANQUE cells = experiment: alamarBlue proliferation assay with TANQUE cells; settings: read-out: Activity on TANOUE: IC50, RPMI 1640 medium, 10% FBS
Excerpt: as §1, §2

[1] = read-out: Activity (HPEK), HPEK cells (HPEKp), antiproliferative activity, class by IC50
[2] = read-out: Activity (MDA), MDA-MB-231 cells, antiproliferative activity, class by IC50
[3] = read-out: Activity on MDA-MB-231 (IC50), glucose-free Leibovitz's L-15, 10% FBS, day 5, alamarBlue
[4] = read-out: Activity (HPEK): antiproliferative activity on HPEK cells, IC50 category, HPEK cells cultivated in CnT-Prime medium
[5] = read-out: Activity (MDA): antiproliferative activity on MDA-MB-231 cells, IC50 category, MDA-MB-231 cells cultivated in glucose-free Leibovitz's L-15 medium

Row | IC50 (HEP-G2 cells) [µM] | IC50 (A-549 cells) [µM] | IC50 (HPEKp cells; [1]) [µM] | IC50 (MDA-MB-231 cells; [2]) [µM] | IC50 (MDA-MB-231 cells; [3]) [µM] | Structure (SMILES) | other results
1 | ≤ 5 | ≤ 5 | – | – | – | COC1CCC(c2c(Cl)cc(Oc3ccc(C(=O)N4CCN(Cc5ccc(Cl)cc5)CC4)nc3)c(O)c2Cl)CC1 (centres unmarked) | –
2 | ≤ 5 | ≤ 5 | < 10 | < 1 | ≤ 1 | COc1ccc(CN2CC3(C2)CN(C(=O)c2ccc(Oc4ccc(C5CCC(OC)CC5)cc4CO)cc2)C3)cc1 (centres unmarked) | IC50 (NB-4 cells): ≤ 5 µM; IC50 (HCT-116 cells): ≤ 5 µM; IC50 (BHY cells): ≤ 5 µM
3 | ≤ 5 | ≤ 5 | < 5 | < 1 | ≤ 1 | O=Cc1cc(C2CCCCC2)ccc1Oc1ccc(C(=O)N2CCN(Cc3ccccc3)CC2)cc1 | –
4 | ≤ 1 | ≤ 0.2 | < 10 | < 1 | ≤ 0.2 | O=C(c1ccc(Oc2ccc(C3CCCCC3)cc2CO)cc1)N1CCN(Cc2ccccc2)CC1 | IC50 (NCI-H460 cells): ≤ 5 µM
5 | – | – | – | – | – | COc1ccccc1CN1CCN(C(=O)c2ccc(Oc3ccc(C4CCC5(CC4)OCCO5)cc3C=O)cc2)CC1 | IC50 (HPEKp cells; [4]): < 5 µM; IC50 (MDA-MB-231 cells; [5]): < 1 µM
6 | ≤ 20 | – | – | – | ≤ 20 | Cc1ccc(S(=O)(=O)N2CC3CN(C(=O)c4ccc(Oc5ccc(C6CCC7(CC6)OCCO7)cc5CO)cc4)CC3C2)cc1 (centres unmarked) | –
7 | ≤ 5 | ≤ 5 | < 10 | < 5 | ≤ 5 | COC1CCC(c2ccc(Oc3ccc(C(=O)N4CC5(CN(Cc6ccc(Cl)cc6)C5)C4)nc3)c(CO)c2)CC1 (centres unmarked) | –
8 | – | – | – | – | ≤ 20 | CC(=O)N1CCN(C(=O)c2ccc(Oc3ccc(C4CCCCC4)cc3CO)cc2)CC1 | –
9 | ≤ 0.2 | ≤ 0.2 | < 5 | < 1 | ≤ 0.2 | O=Cc1cc(C2CCCCC2)ccc1Oc1ccc(C(=O)N2CCN(Cc3ccc(Cl)cc3)CC2)cc1 | –
10 | ≤ 5 | ≤ 5 | < 10 | < 5 | ≤ 5 | O=C(c1ccccc1)N1CCN(C(=O)c2ccc(Oc3ccc(C4CCC5(CC4)OCCO5)cc3CO)cc2)CC1 | –
11 | ≤ 1 | ≤ 0.2 | < 1 | < 1 | ≤ 0.2 | O=C1CCC(c2ccc(Oc3ccc(C(=O)N4CCN(Cc5ccccc5)CC4)cc3)c(CO)c2)CC1 | IC50 (LL/2 cells): ≤ 5 µM; IC50 (NB-4 cells): ≤ 1 µM; IC50 (TANQUE cells): ≤ 1 µM; IC50 (HCT-116 cells): ≤ 1 µM; IC50 (BHY cells): ≤ 1 µM
12 | ≤ 5 | ≤ 5 | – | – | ≤ 5 | O=Cc1cc(C2CCCCC2)ccc1Oc1ccc(C(=O)N2CC3(CN(Cc4ccc(Cl)cc4)C3)C2)cc1 | –
13 | – | – | – | – | ≤ 0.2 | Nc1ccc(CN2CCN(C(=O)c3ccc(Oc4ccc(C5CCC6(CC5)OCCO6)cc4C=O)cc3)CC2)cc1 | IC50 (NCI-H460 cells): ≤ 20 µM; IC50 (HPEKp cells; [4]): < 10 µM; IC50 (MDA-MB-231 cells; [5]): < 1 µM
14 | ≤ 5 | ≤ 5 | – | – | ≤ 5 | O=C(c1ccc(Oc2ccc(C3CCCCC3)cc2CO)cc1)N1CC2(CN(Cc3ccc(Cl)cc3)C2)C1 | –
15 | ≤ 1 | ≤ 1 | < 10 | < 1 | ≤ 1 | COC1CCC(c2ccc(Oc3ccc(C(=O)N4CC5(CN(Cc6ccc(Cl)cc6)C5)C4)cc3)c(CO)c2)CC1 (centres unmarked) | –
16 | ≤ 5 | ≤ 5 | – | – | – | COc1ccc(CN2CCN(C(=O)c3ccc(Oc4cc(Cl)c(C5CCC(OC)CC5)c(Cl)c4O)cn3)CC2)cc1 (centres unmarked) | –

Row | IC50 (HEP-G2 cells) [µM] | IC50 (A-549 cells) [µM] | IC50 (HPEKp cells; [1]) [µM] | IC50 (MDA-MB-231 cells; [2]) [µM] | IC50 (MDA-MB-231 cells; [3]) [µM] | Structure (SMILES) | other results
17 | ≤ 1 | ≤ 1 | < 5 | < 1 | ≤ 1 | COc1ccc(CN2CC3(C2)CN(C(=O)c2ccc(Oc4ccc(C5CCCCC5)cc4CO)cc2)C3)cc1 | –
18 | – | – | – | – | ≤ 5 | C#CCN1CCN(C(=O)c2ccc(Oc3ccc(C4CCC(=NO)CC4)cc3CO)cc2)CC1 (centres unmarked) | IC50 (HPEKp cells; [4]): > 10 µM; IC50 (MDA-MB-231 cells; [5]): < 5 µM
19 | – | – | < 10 | < 5 | ≤ 5 | O=C(c1ccc(Oc2ccc(C3CCCCC3)cc2CO)cc1)N1CC2(CN(Cc3ccccc3)C2)C1 | –
20 | – | – | – | – | ≤ 20 | C#CCN1CCN(C(=O)c2ccc(Oc3ccc(C4CCCCC4)cc3CO)cc2)CC1 | –
21 | ≤ 1 | ≤ 1 | – | – | – | COC1CCC(c2ccc(Oc3ccc(C(=O)N4CCN(Cc5ccc(Cl)cc5)CC4)nc3)c(O)c2)CC1 (centres unmarked) | –
22 | – | – | – | – | ≤ 5 | Cc1ccc(S(=O)(=O)N2CCN(C(=O)c3ccc(Oc4ccc(C5CCC6(CC5)OCCO6)cc4C=O)cc3)CC2)cc1 | –
23 | – | – | – | – | ≤ 20 | O=C(c1ccc(Oc2ccc(C3CCC4(CC3)OCCO4)cc2CO)cc1)N1CCN(CCO)CC1 | –
24 | ≤ 5 | ≤ 5 | < 10 | < 5 | ≤ 5 | COC1CCC(c2ccc(Oc3ccc(C(=O)N4CC5(CN(Cc6ccccc6)C5)C4)cc3)c(CO)c2)CC1 (centres unmarked) | –
25 | ≤ 5 | ≤ 5 | < 10 | < 1 | ≤ 5 | O=C(c1ccc(Oc2ccc(C3CCC4(CC3)OCCO4)cc2CO)cc1)N1CCN(Cc2ccc(Cl)cc2)C2CCCCC21 (centres unmarked) | IC50 (LL/2 cells): ≤ 5 µM; IC50 (NB-4 cells): ≤ 5 µM; IC50 (TANQUE cells): ≤ 5 µM; IC50 (HCT-116 cells): ≤ 5 µM; IC50 (BHY cells): ≤ 5 µM
26 | – | – | < 10 | < 5 | ≤ 5 | COc1ccc(CN2CC3(C2)CN(C(=O)c2ccc(Oc4ccc(C5CCC(OC)CC5)cc4CO)cn2)C3)cc1 (centres unmarked) | –
27 | ≤ 5 | – | – | – | ≤ 5 | O=C(c1ccc(Oc2ccc(C3CCCCC3)cc2CO)cn1)N1CC2(CN(Cc3ccc(Cl)cc3)C2)C1 | –
28 | – | – | – | – | ≤ 5 | CC(=O)Oc1ccc(CN2CCN(C(=O)c3ccc(Oc4ccc(C5CCC6(CC5)OCCO6)cc4CO)cc3)CC2)cc1 | IC50 (NCI-H460 cells): ≤ 20 µM; IC50 (HPEKp cells; [4]): < 10 µM; IC50 (MDA-MB-231 cells; [5]): < 5 µM
29 | – | – | – | – | – | O=C(c1ccc(Oc2ccc(C3CCC4(CC3)OCCO4)cc2CO)nc1)N1CCN(Cc2ccccc2)CC1 | IC50 (LL/2 cells): ≤ 5 µM; IC50 (NB-4 cells): ≤ 0.2 µM; IC50 (TANQUE cells): ≤ 0.2 µM; IC50 (HCT-116 cells): ≤ 0.2 µM; IC50 (BHY cells): ≤ 0.2 µM
30 | ≤ 1 | ≤ 0.2 | < 10 | < 1 | – | O=C(c1ccc(Oc2ccc(C3CCCCC3)cc2CO)cn1)N1CCN(Cc2ccccc2)CC1 | IC50 (BHY cells): ≤ 5 µM
31 | – | – | – | – | ≤ 5 | COc1ccc(CN2CC3(C2)CN(C(=O)c2ccc(Oc4ccc(C5CCC6(CC5)OCCO6)cc4C=O)cc2)C3)cc1 | –
